From ChEMBL document CHEMBL1125598, “HIV protease: a novel chemotherapeutic target for AIDS” (J Med Chem, 1991)

Molecular target: Human immunodeficiency virus type 1 protease (Human immunodeficiency virus 1, UniProt Q72874)
Experiment: Binding affinity for HIV-1 protease

With O=C(CCCN1CCC(O)(c2ccc(Cl)cc2)CC1)c1ccc(F)cc1 [HALOPERIDOL] the Ki was 100 nM.
